Key:
[1] = tested on: neuropathic hyperalgesia in rats; assay: Seltzer model: partial sciatic nerve ligation model of neuropathic pain (PWT); assay type: in vivo, rat; conditions: for % Reversal [mean ± SEM]: partial sciatic nerve ligated rats
[2] = In vitro metabolic stability, human liver microsomes; conditions: % of compound remaining after 30 min incubation at 37° C., 2 μM, 0.5 mg/mL human liver microsomes

Structure (SMILES)	% Reversal [mean ± SEM] ([1]; 1 mg/kg oral, 1 hour after administration)	% Reversal [mean ± SEM] ([1]; 1 mg/kg oral, 3 hours after administration)	% Reversal [mean ± SEM] ([1]; 1 mg/kg oral, 5 hours after administration)	% Reversal [mean ± SEM] ([1]; 1 mg/kg oral, 7 hours after administration)	% Reversal [mean ± SEM] ([1]; 1 mg/kg oral, pre-administration)	% Reversal [mean ± SEM] ([1]; 3 mg/kg oral, 1 hour after administration)	% Reversal [mean ± SEM] ([1]; 3 mg/kg oral, 3 hours after administration)	% Reversal [mean ± SEM] ([1]; 3 mg/kg oral, 5 hours after administration)	% Reversal [mean ± SEM] ([1]; 3 mg/kg oral, 7 hours after administration)	% Reversal [mean ± SEM] ([1]; 3 mg/kg oral, pre-administration)	% Reversal [mean ± SEM] ([1]; 10 mg/kg oral, 1 hour after administration)	% Reversal [mean ± SEM] ([1]; 10 mg/kg oral, 3 hours after administration)	% Reversal [mean ± SEM] ([1]; 10 mg/kg oral, 7 hours after administration)	% Reversal [mean ± SEM] ([1]; 10 mg/kg oral, pre-administration)	reversal of neuropathic hyperalgesia compared with pregabalin control ([1]; 1, 3, or 10 mg/kg, all measured time-points, pregabalin 10 mg/kg)	% reversal in rats that underwent sham surgery ([1]; sham surgery rats, 3 mg/kg, after 3 hrs (highest value of the sham groups))	Metabolic Stability (%) Human [2]
O=C(O)[C@@H]1CCN1c1nc2ccccc2n([C@H]2C[C@H]3CCC[C@@H](C2)N3[C@@H]2C[C@@H]3CCCC[C@@H](C3)C2)c1=O	37.5 ± 10.2%	42.5 ± 7.6%	39.4 ± 10.4%	33.7 ± 7.7%	0%	39.0 ± 6.3%	46.8 ± 5.7%	34.1 ± 6.5%	25.7 ± 6.5%	0%	39.3 ± 7.6%	42.4 ± 7.0%	29.5 ± 5.1%	0%	more effective reversal than the pregabalin control	95.3%	–
O=C(O)[C@@H]1CCN1c1nc2ccccc2n([C@H]2C[C@H]3CCC[C@@H](C2)N3[C@H]2C[C@@H]3CCC[C@@H](C3)C2)c1=O	–	–	–	–	–	–	–	–	–	–	–	–	–	–	–	–	94 100%

Source: patent US9290488B2, “Azetidine-substituted quinoxalines as opioid receptor like-1 modulators” (priority 2011, dated 2016)
